In US5985916A, “Polymer-platinum compounds” (Access Pharmaceuticals, Inc., priority 1998, dated 1999):

Columns and labels:
[1] = for Pt Loading, AAS: Atomic absorption spectroscopy; for platinum content: analysis method not given
[2] = o-phenylenediamine colorimetric assay

Substance | Pt Loading, AAS [1] [% wt] | platinum content [1] | Pt Loading, o-PDA [2] [% wt]
poly[(bisacryloyl piperazine)-β-aminocyclodextrin-piperazinyl] [PAP-cyc] | 53 | 50-60 wt % | 69
poly(bisacrylamido-acetoxy-aminoCy.dex-piperazinyl) [PACP-cyc] | 56 | 50-60 wt % | 60
poly(bisacrylamido-acetoxy-piperazinyl) [PACP] | 10 |  | 15
